From US10202375B2, “N-pyridinyl acetamide derivatives as Wnt signalling pathway inhibitors” (Redx Pharma PLC, priority 2014, dated 2019)

Test system: Wnt pathway (L-Wnt cells producing murine Wnt-3a; Leading Light Wnt Reporter Cells)
Assay: Dual-Cell β-Catenin Reporter Assay
Format: cell-based
Conditions: Mus musculus, luciferase signal reduced to 50% of DMSO control; category symbols
Procedure: Dual-Cell β-Catenin Reporter Assay
Mouse L cells transfected to constitutively produce biologically active murine Wnt-3a, referred to as L-Wnt cells, were purchased from the American Type Culture Collection, ATCC, Manassas, Va. (ATCC). These cells were cultured in DMEM supplemented with 10% FCS (Gibco/Invitrogen, Carlsbad, Calif.), 1% geneticin and 1% sodium pyruvate (Sigma) at 37° C. with 5% CO2. The cells were seeded into 96 well plates and treated with serial dilutions of compound diluted to 0.1% DMSO concentration. After 24 hours, cell supernatants were transferred to a 96 well plate previously seeded with Leading Light® Wnt Reporter Cells, stably transfected with a luciferase gene under control of Wnt pathway response elements. After a further 24 hours, cells are treated with One-glo luciferase assay system (Promega, Madison, Wis.) and the luminescent signal read by envision.

| IC50 [nM] | Compound |
| --- | --- |
| < 1 | Cc1cc(-c2ccnc3c2ccn3CC(=O)Nc2ccc(-c3cnccn3)cn2)ccn1 [ID No. 27, 2-[4-(2-methyl-4-pyridyl)pyrrolo[2,3-b]pyridin-1-yl]-N-(5-pyrazin-2-yl-2-pyridyl)acetamide] |
| < 1 | Cc1cc(-c2ncnc3c2ccn3CC(=O)Nc2ccc(-c3cnccn3)cn2)ccn1 [compound 26, 2-[4-(2-methyl-4-pyridyl)pyrrolo[2,3-d]pyrimidin-7-yl]-N-(5-pyrazin-2-yl-2-pyridyl)acetamide] |
